The source of these data is patent US7279172B2, “Treatment of autoimmune conditions with copolymer 1 and related copolymers” (priority 1998, dated 2007).

For test [1], the system named is experimental allergic encephalomyelitis (EAE). Kind of test: EAE suppression by oral administration. The settings on record: Lewis rats fed 5 mg/kg at 2-3 day intervals before EAE induction; for Incidence / Incidence (%): cumulative of 3–5 experiments.
For test [2], the system named is DR1-restricted 3.19 and 19.3 T cell hybridomas. The experiment in a line: Inhibition of IL-2 production by DR1-restricted CII-specific T cell hybridomas. The settings on record: CII 261-273 40 μg/ml, L57.23 APC, IL-2 read by CTL-L proliferation.

In the case of Copolymer 1 [reference compound], in test [1], the “Mean Onset” value worked out at 12.6 days, the Incidence was 13/28 and the “Incidence (%)” value is 46%. In test [2], the “inhibition of DR1-restricted T cell activation by CII collagen peptide (in words)” value (“inhibition” for short) was “potent inhibitors”.

Consider “poly[L-Tyr^0.102, L-Ala^0.542, L-Lys^0.353] [SD-1691-TAL]”, for which the “inhibition” value in test [2] is “most potent inhibitor”.

Consider “poly[L-Tyr^0.136, L-Glu^0.21, L-Ala^0.648] [SD-1690-TGA]”, for which, in test [2], the “inhibition” value is recorded as “less efficiently”.

As for “poly[L-Tyr^0.162, L-Glu^0.259, L-Lys^0.579] [SD-1697-GTL]”, in test [2], the “inhibition” value is reported as “potent inhibitors”.

B1: GPBP: guinea pig basic protein (protein, UniProt P25188 1-167, looked up)
Myelin basic protein: ASQKRPSQRHGSKYLATASTMDHARHGFLPRHRDTGILDSIGRFFGSDRAAPKRGSGKDSHHAARTTHYGSLPQKSQRSQDENPVVHFFKNIVTPRTPPPSQGKGRGLSLSRFSWGAEGQKPGFGYGGRADYKSKGFKGAHDAQGTLSKIFKLGGRDSRSGSPMARR
On to B1, for which, in test [1], the “Mean Onset” value is on record as 11.4 days, the Incidence is listed as 10/17 and the “Incidence (%)” value is 59%.
